Test results as given in patent US20250382373A1, “ANTI-EGFR/MET ANTIBODIES AND USES THEREOF” (Biocytogen Pharmaceuticals (Beijing) Co., Ltd., priority 2022, published 2025).

Columns and labels:
[1] = system: NCI-H1975 cells; assay: NCI-H1975 xenograft model in B-NDG mice; assay type: in vivo
Protocol: The lengths of the long axis and the short axis of the tumor were measured and the volume of the tumor was calculated as 0.5×(long axis)×(short axis)^2. The tumor growth inhibition (TGI) was calculated using the following formula: TGI (%)=[1−(Ti−T0)/(Vi−V0)]×100. Ti is the average tumor volume in the treatment group on day i. T0 is the average tumor volume in the treatment group on day zero. Vi is the average tumor volume in the control group on day i. V0 is the average tumor volume in the control group on day zero. T-test was performed for statistical analysis. […] P<0.05 is a threshold to indicate significant difference.

[2] = system: patient-derived ampullary tumor fragments; assay: Human ampullary carcinoma PDX model; assay type: in vivo, B-NDG mice; details: for TGI (%): Day 21; for Tumor volume Day 0: day of grouping
Protocol: The ADCs were tested for their effect in human ampullary carcinoma PDX model.
The mice were then injected with PBS, ADCs or Amivantamab (Janssen, Cat #: LFS0L03) by intravenous (i.v.) administration.

[3] = Table 25 study, 3 mg/kg i.v. QW x2

Cetuximab analog-ADC
Tumor volume Day 0 ([1]; Table 25 study (tumor about 200 mm^3), 3 mg/kg i.v. QW x2, day of grouping): 193 ± 11 mm^3
Tumor volume Day 17 [1, 3]: 352 ± 116 mm^3
Tumor volume Day 31 [1, 3]: 1712 ± 262 mm^3
TGI (%) ([1]; Table 25 study, 3 mg/kg i.v. QW x2, Day 31): 51.7%
Tumor volume Day 14 ([2]; 3 mg/kg i.v. QW x2): 413 ± 72 mm^3
Tumor volume Day 21 ([2]; 3 mg/kg i.v. QW x2): 440 ± 102 mm^3
TGI (%) ([2]; 3 mg/kg i.v. QW x2): 80.2%
Tumor volume Day 0 ([2]; 3 mg/kg i.v. QW x2): 273 ± 11 mm^3
Tumor volume Day 14 ([2]; 6 mg/kg i.v. QW x2): 290 ± 40 mm^3
Tumor volume Day 21 ([2]; 6 mg/kg i.v. QW x2): 234 ± 71 mm^3
TGI (%) ([2]; 6 mg/kg i.v. QW x2): 104.7%
Tumor volume Day 0 ([2]; 6 mg/kg i.v. QW x2): 273 ± 14 mm^3
TGI ([2]; group G6, Day 39): 78.7%
TGI ([2]; group G7, Day 39): 57.5%
